Yeast mating assay 2: variants of the scFv Ab-91

Antigen: PDVDLGDISGINAS, a 14-residue peptide of the SARS-CoV-2 spike HR2 region.

Each scFv is VL, a 15-residue (Gly4Ser)3 linker, VH, as in the parent Ab-91, and differs from it in the CDRs of the heavy chain only.
VL: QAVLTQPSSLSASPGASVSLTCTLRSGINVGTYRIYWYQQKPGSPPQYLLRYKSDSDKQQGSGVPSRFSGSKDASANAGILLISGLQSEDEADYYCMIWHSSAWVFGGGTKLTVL
VH: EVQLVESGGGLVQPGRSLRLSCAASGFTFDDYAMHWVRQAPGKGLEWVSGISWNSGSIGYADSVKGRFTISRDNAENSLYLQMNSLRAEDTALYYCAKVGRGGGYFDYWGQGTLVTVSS

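The parent was found by panning a naive human phage display library on the peptide. The library (AAYL51) carries one to three amino acid substitutions per variant, with no insertions or deletions. The assay is AlphaSeq: two haploid yeast populations carry antibody and antigen on their surface. Pairs that bind mate more often; barcode pairs of the diploids are counted by sequencing. Scores were corrected for input abundance and mapped to Kd with protein pairs of known affinity run in the same pool. The assay was run in three technical replicates.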

The parent's heavy chain CDRs are GFTFDDYAMH, GISWNSGSIGYADSVK, VGRGGGYFDY; each variant's own CDRs replace them letter for letter.
Numbers give log10(Kd / nM), so 0 is 1 nM and 3 is 1 µM. Smaller is tighter.
Where no diploid with the target was found in that replicate, the entry reads "nd": below detection, most likely a poor binder, though not proof of it.

CDR-H1 | CDR-H2 | CDR-H3 | log10 Kd (nM) by replicate | control signals
GFTFDDYAMH | GISWNSDSVGYADAVK | VGRGGGYFDY | 2.74 2.73 2.52 | 4/9 (4.22)
GFTFDKYAGH | GIFWNSGSIGYADSVK | VGRGGGYFDY | nd 4.75 5.20 | 7/9 (5.06)
GFTFDDYDMH | GISWNSGSIGYAQSVK | VGRGGGYFHY | nd nd 5.41 | 2/9 (4.90)
GFTFDDYAMH | GISWNIGSIGYADSTK | VGRGTGYFDY | 3.41 5.21 5.14 | 1/9 (4.75)
GFTFDDYAMH | GISWNSGSIGYAGSCK | VGRGGWYFDY | 4.18 nd nd | 4/9 (5.00)
GFTFDDYAMF | GITWNSGSIYYADSVK | VGRGGGYFDY | 4.28 5.21 nd | 5/9 (5.01)
GFTFDDYAMH | GISWNSHSIGYADTVA | VGRGGGYFDY | nd nd nd | 0/9
GFLFDTYAMH | GISWNSGTIGYADSVK | VGRGGGYFDY | 5.00 3.86 3.96 | 1/9 (3.63)
GQTFDDYAMH | GISWNSGSVGYADSVK | VGRGKGYFDY | nd nd nd | 0/9
GFTFDDYAMH | GISWNSGSIGYADSVK | VGRGGTYMDY | nd nd nd | 1/9 (4.29)
GFTFDDYAMH | GISWNSQSIGYHDSVK | VGRGGGYGDY | nd nd nd | 1/9 (5.02)
GFTFDDYAYH | GISWNSGSIGYADSVK | YGRGGGGFDY | nd nd nd | 1/9 (3.95)
GFTFDDYAMH | GISWDSGSIGYADSVK | VGRQGGQFDY | nd 6.83 4.49 | 3/9 (4.76)
GFTFDIYDMH | GISWNSGTIGYADSVK | VGRGGGYFDY | 5.96 nd 4.06 | 4/9 (4.13)
GFTFDSYANH | GISWNSGSIGYADSVK | VGRGGGYTDY | nd nd nd | 0/9
GFTFDDYAMA | GISDNSGSIGYADSVK | SGRGGGYFDY | 4.36 nd 4.11 | 2/9 (4.29)
GGTFDDYAMH | GISTNSGSIGYADSVK | VGRGGGYFDY | 2.90 2.72 2.91 | 4/9 (4.15)
GFTFDDYAMH | GISWNDGSIGLEDSVK | VGRGGGYFDY | nd nd nd | 0/9
GFTFDDYAMH | GISWYAGSIGYADSVK | NGRGGGYFDY | nd nd nd | 2/9 (5.27)
GFTFDDYIMH | GISWNSGSQGYAMSVK | VGRGGGYFDY | nd nd nd | 0/9
GFTFDDYAMH | GISWNSGSIGYAYSKK | DGRGGGYFDY | nd nd 4.65 | 2/9 (4.96)
GFTFDDYAMH | GISWNSGSIGYTDSDK | VGRGGHYFDY | nd nd nd | 0/9
GFTFDDYAMH | GISWNSGQIGYADIVK | VGRGGGYFIY | 2.09 1.86 1.57 | 3/9 (4.04)
GFTFDDYAMH | GISWVSGSIGYWDSVK | VGRGGGYCDY | nd 5.65 nd | 2/9 (5.07)
QFTFDDYAMH | GISWNSGSIGYADSVK | VGQGGGYFDA | 2.54 2.57 1.71 | 0/9
GFTFDDYAMH | CISWNQGSIGYADSVK | VGSGGGYFDY | 6.47 nd nd | 5/9 (4.37)
GFTFDDYAMH | GIYFNSGSIGYADCVK | VGRGGGYFDY | nd nd nd | 1/9 (3.76)
GFTFDDYANH | GISWNSGSIGYIDSVK | VGRGGGYFDK | 5.29 4.74 5.78 | 4/9 (5.44)
GFTFDDYAMH | GISWNSGSIGYADSVK | VGRLGGSDDY | nd nd nd | 1/9 (4.52)
GFTFKDYAMH | GISWNSGSIGYADSVK | RGRGGGYNDY | 5.47 nd nd | 3/9 (4.79)
GFTFNDYAMH | GISWNSGSIGYADSVK | VGRGGGHFDY | 3.87 nd 2.49 | 3/9 (4.79)
GFTFDDYAVH | GISWNSGRIGYADSVK | VGRGEGYFDY | 3.98 nd nd | 1/9 (3.82)
GFTFRDYAMH | GISWNLGSIGYADSVK | VPRGGGYFDY | nd 5.73 nd | 3/9 (4.73)
GFTFDCYAMH | PISWNSGSIGYADSVK | VGRGGGYFDY | nd 4.48 4.69 | 3/9 (4.98)
GFTFDDYAMH | CISWNSGSIGYTDSVK | VGRGGGYKDY | nd 3.83 4.52 | 2/9 (4.72)
GFTFDDYAMH | GISGNSGSIGYFDSVK | IGRGGGYFDY | 0.64 0.68 -0.01 | 1/9 (3.27)
GFTFDDHVMH | GISWNSGSIGYADSVK | VGRGGGYFDY | 4.80 nd 5.16 | 2/9 (4.81)
GFTFDDYAMH | GSYWNSGSIGYADSVK | VGRGGGEFDY | nd nd nd | 4/9 (4.90)
GFTWDPYAMH | GISWNSVSIGYADSVK | VGRGGGYFDY | nd nd nd | 1/9 (4.81)
GYTFDDYAMH | GIEWNSGSIGYADSVY | VGRGGGYFDY | nd 2.99 nd | 1/9 (2.43)
GFWFDDYAMH | GISWNSGSIGDADSVK | VGRGGGYPDY | 4.19 5.40 nd | 1/9 (4.02)
GFTFDDYAMH | GISWNSGSISYADSVW | VGRGGGPFDY | 4.00 nd nd | 1/9 (2.97)

Three control strains display no target. For library AAYL51, 21% of the pairings with them gave a signal, with a median of 4.54 and one signal in twenty below 3.26, so weak values seen in few replicates may be background. Also given: how often the same scFv was detected with the empty control strains, with their mean in brackets.
In this assay the parent's reference entry averaged 1.86; its copy inside this library read 0.88.

Reference: Engelhart et al. 2022, doi:10.1038/s41597-022-01779-4. File: FLAb, binding data.